Literature values in patent US10689367B2, “Triazole pyridyl compounds as agonists of the APJ receptor” (AMGEN INC., priority 2016, dated 2020).

By UniProt entry, the sequences of proteins in these tests, tags left out. Where a name states a change or a piece, a line headed by the entry shows the natural chain unless it says otherwise.
UniProt P35414: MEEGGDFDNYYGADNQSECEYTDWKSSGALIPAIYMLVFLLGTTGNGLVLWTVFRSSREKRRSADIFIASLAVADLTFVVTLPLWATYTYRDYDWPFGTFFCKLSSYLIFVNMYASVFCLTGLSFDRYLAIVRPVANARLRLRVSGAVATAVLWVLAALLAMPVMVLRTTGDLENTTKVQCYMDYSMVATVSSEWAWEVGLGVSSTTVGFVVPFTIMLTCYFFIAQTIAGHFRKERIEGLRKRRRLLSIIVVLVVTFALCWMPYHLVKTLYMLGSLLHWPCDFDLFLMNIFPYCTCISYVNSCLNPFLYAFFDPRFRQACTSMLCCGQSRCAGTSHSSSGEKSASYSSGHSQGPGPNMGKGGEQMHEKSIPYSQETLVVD

Biological target: APJ receptor (Homo sapiens (Human), UniProt P35414)
Conditions: higher than apelin-36; cited from earlier work

For Apelin-13, the “in vitro affinity to the APJ receptor relative to apelin-36” value is listed as about 3.5 fold.
